Measured values: ChEMBL document CHEMBL3407331, “Discovery of AM-7209, a potent and selective 4-amidobenzoic acid inhibitor of the MDM2-p53 interaction” (J Med Chem, 2014)

System: SJSA-1
Experiment: cells
Conditions: Homo sapiens, SJSA-1, 16 h

`CC(C)(C)S(=O)(=O)C[C@H](C1CC1)N1C(=O)[C@@](C)(CC(=O)O)C[C@H](c2cccc(Cl)c2)[C@H]1c1ccc(Cl)c(F)c1` was tested. Which IC50 did it give?
The IC50 was 1.2 nM.
